Each structure is given as a SMILES string. The entries are a selection whose mix differs from that of the whole data set. Some results for these compounds are left out of this collection, so the calls shown say nothing about other tests. Calls of active or inactive are those of the source. Rule as the data show it: active = fold change above about 3.3; inconclusive = no clear call, values can overlap the other calls; inactive = below that.

This assay is described as follows: activators of NF-kB expression in neurons, primary screen, cell-based, HTS (AID 1239). Particulars: human neuronal cells, NF-kB reporter expression; at 12.5 µM; hits give high values.
As to `C=CCN1CCN(CCOC(=O)C(O)(c2ccccc2)c2ccccc2)CC1`, the fold change is inactive: 1.04.

Take `CCN1CCCC(OC(=O)C2(O)c3ccccc3C=Cc3ccccc32)C1` (stereo not drawn): the fold change was inactive: 1.11.

With `CN(C)C1CCCC1OC(=O)C(O)(c1ccccc1)c1ccccc1` (stereo not drawn), the fold change was inactive: 1.03.

Consider `Cc1ccccc1C(=O)NCC1(N2CCCCC2)CCCCC1`, for which the fold change was inactive: 0.87.

For `CC(C)N1C(=O)CC2(CCN(CCOC(=O)C(O)(c3ccccc3)c3ccccc3)CC2)C1=O`, the fold change is inactive: 0.79.

Take `CN(C)c1cccc(C(=O)NCC2(N(C)C)CCCCC2)c1`: the fold change is inactive: 0.94.

Regarding `O=C(OC1CN2CCC1CC2)C(CO)(c1ccccc1)c1ccccc1` (stereo not drawn), the fold change was inactive: 1.18.

As to `COc1cccc(C(=O)NCC2(N3CCCCC3)CCCCC2)c1`, the fold change is inactive: 1.15.
